# From US11596939B2, “Lamp component distribution in a microfluid cell” (priority 2017, dated 2023)
# Tested on: target DNA
# Test: Sample pre-treatment with antimicrobial peptides before isothermal amplification
# Conditions: on average; sample pre-treatment with peptide
# Description: Pre-treatment of the samples with antimicrobial peptides gives increased amount of target DNA compared to normal thermal and alkaline sample preparation. Thus, the sample pre-treatment method of the present invention is well suitable with downstream amplification applications necessary for adapting the methods to POC.
# SB-37 gained on average 2 times increase of the target DNA. The peptide sequence of Cecropin B analogue SB-37 is […].
substance,measurement,value
Cecropin B analogue SB-37,increase of the target DNA available for the isothermal amplification,2 times
